Sequences of proteins named here, by UniProt entry; tags and fusion partners are left off.
Guanine nucleotide-binding protein G(i) subunit alpha-3 (Rattus norvegicus), P08753, UniProt P08753, whole entry, looked up: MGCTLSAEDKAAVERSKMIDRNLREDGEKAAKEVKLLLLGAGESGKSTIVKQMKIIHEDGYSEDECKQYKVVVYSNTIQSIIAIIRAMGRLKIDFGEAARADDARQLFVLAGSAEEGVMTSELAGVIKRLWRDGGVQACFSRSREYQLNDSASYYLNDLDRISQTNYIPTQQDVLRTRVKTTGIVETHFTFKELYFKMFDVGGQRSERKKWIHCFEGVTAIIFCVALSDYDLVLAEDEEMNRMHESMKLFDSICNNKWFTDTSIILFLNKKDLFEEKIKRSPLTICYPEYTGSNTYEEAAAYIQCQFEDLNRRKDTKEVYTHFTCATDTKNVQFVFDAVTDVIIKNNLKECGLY

# Compound activity deposited in PubChem by ICCB-Longwood Screening Facility, Harvard Medical School.
# Shown is part of a subset that was picked to be rich in hits.
# GIV Gai3 FP: inhibitors of GIV peptide binding to Galpha-i3, primary screen, biochemical, fluorescence polarization, FITC-GIV GBA peptide, rat Galphai3 | Guanine nucleotide-binding protein G(i) subunit alpha-3 (Rattus norvegicus), P08753 | 90 min; hits give low values; scaled: aluminum fluoride 0%, vehicle 100% | percent of control (FP), % (test concentration not listed) | hit rate 0.42% among 210,000 | AID 1224905, 2016;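 active = replicate mean at 85% of control or lower, very high polarization wells dropped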;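 note: wells of about 15 µL received 100 nL stock; the first replicate is given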
# HCMV NEC inh: inhibitors of HCMV UL50-UL53 interaction, biochemical, HTRF; inhibition, % (concentration not given with the values); 190,000 tested, 0.15% active; normalized percent inhibition; HCMV UL50-UL53 nuclear egress complex (human cytomegalovirus); in the data active = inhibition above about 27%, passing the limit was not always enough
# GIV Gai FP conf: inhibitors of GIV peptide binding to Galpha-i3, confirmation, biochemical, fluorescence polarization, FITC-GIV peptide, rat Galphai3; shares compounds with GIV Gai3 FP; stronger effect = lower value; fluorescence polarization, mP at 100 µM; 580 tested, 38% active; AID 1259350, 2017;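 active = inhibition score of 15 or more, meaning 100 minus mean polarization as percent of control over three replicates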
# GIV-Gai AS conf: inhibitors of GIV binding to Galpha-i3, confirmation, orthogonal assay for GIV-Galpha-i inhibitor project, biochemical, AlphaScreen, His-GIV, GST-Galphai3; shares compounds with GIV Gai3 FP; purified proteins, 90 min; stronger effect = lower value; AlphaScreen counts at 100 µM; 580 tested, 39% active;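 active = inhibition score at or above a set limit, where the score is 100 minus the three-replicate mean percent of control signal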
# Starred values were filed as active, the others as inactive; x = not tested or not shown.
SMILES,GIV Gai3 FP,HCMV NEC inh,GIV Gai FP conf,GIV-Gai AS conf
N#C/C(=C\c1ccc(-c2cc(Cl)ccc2Cl)o1)C(=O)Nc1ccccc1C(=O)O,113,-74,x,x
Cc1ccc(C)c(-n2ccn(CC#N)c(=O)c2=O)c1,104,-16,x,x
Cc1ccc(OCC(=O)/C=C2\N(C)c3ccccc3C2(C)C)cc1,x,-30,x,x
COc1ccc(-c2c/c(=N\O)c3cc(F)ccc3o2)cc1,x,-20,x,x
COc1ccc(-c2cc(=Nc3ccc(C)cc3C)c3cc(O)ccc3o2)cc1,75*,x,64,35576
O=C(O)C(=Cc1ccc(-c2cccc(C(F)(F)F)c2)o1)C(=O)O,84*,-16,67,15696*
N#C/C(=C/c1ccc(-c2cccc(C(F)(F)F)c2)o1)c1ccc(C(=O)O)cc1,111,-52,x,x
COc1ccc(NC(=O)c2sc3nc4c(c(-c5ccco5)c3c2N)CCCCC4)cc1,106,x,x,x
COc1ccc(NC(=O)c2sc3nc4c(c(-c5ccco5)c3c2N)CCCC4)cc1,84*,x,65,55254
Cc1ccc(C)c(NC(=O)CN(C)S(=O)(=O)c2cccc3nsnc23)c1,106,-84,x,x
CCCC(=O)Nc1ccc(-c2nc3cc4ccccc4cc3[nH]2)cc1,102,x,x,x
Cc1cc(=O)cc(C)n1-c1ccccc1O,x,-3,x,x
Cc1ccc(C)n1-c1ccsc1C(=O)CC#N,97,-15,x,x
Cc1ccc(C)n1-c1ccc(C(=O)O)cc1O,31*,56*,50*,3903*
Cc1ccc(C)n1-c1ccsc1C(=O)O,65*,-20,11*,1766*
Cc1ccc(C(=O)O)cc1-n1c(C)ccc1C,67*,-3,54*,3689*
Cc1cc(C)n(-c2cc(C(=O)O)ccc2C)n1,100,21,x,x
Nc1nc(N)c2nc(-c3cccc(O)c3)c(-c3cccc(O)c3)nc2n1,x,-156,x,x
COC(OC)C12c3ccccc3C(c3ccccc31)C1C(=O)N(c3ccc(C(C)=O)cc3)C(=O)C12 (stereo not given),111,x,x,x
S=C(N=P(c1ccccc1)(N1CCOCC1)N1CCOCC1)NCc1cn2ccsc2n1,x,-20,x,x
CC(=O)NC(CC(=O)N1CCN(S(=O)(=O)c2ccc(C)cc2)CC1)c1ccccc1 (stereo not given),x,-16,x,x
C=CC(=O)N1c2c(C)cccc2-c2c(ssc2=S)C1(C)C,110,x,x,x
CCCOc1c(OC)cccc1C1CC(=O)Nc2c1c(C)nn2-c1ccc2nncn2n1 (stereo not given),101,-38,x,x
Nc1c(-c2nc(-c3ccc(F)cc3)cs2)c2ccccn2c1C(=O)c1ccc2c(c1)OCO2,75*,-18,80,34447
Cc1ccc(-c2csc(-c3c(N)c(C(=O)c4ccc5c(c4)OCO5)n4ccccc34)n2)cc1C,89,-16,x,x
NC1=NC(=O)/C(=C/c2cccs2)S1,106,-63,x,x
CC(=O)NC1=NC(=O)/C(=C\c2cccs2)N1C,80*,-76,45*,83504
CC(=O)Nc1ccc2nc(N3CCC(C(=O)NC(C)C)CC3)cc(C)c2c1,104,x,x,x
CCOc1ccc2c(c1)c1nnc(-c3ccccc3)c-1cn2Cc1ccccc1,71*,-34,64,45947
c1ccc(Cn2cc3c(-c4ccccc4)nnc-3c3ccccc32)cc1,110,-60,x,x
O=C(/C=C/c1ccc2c(c1)OCCCO2)N1CCN(C2CCS(=O)(=O)C2)CC1 (stereo not given),x,-22,x,x
c1cc2c(cc1-n1nnnc1SCC1CC1)OCO2,x,-11,x,x
CCc1cccc(-n2nnnc2N2CCN(C(=O)Nc3ccc(C)cc3C)CC2)c1,105,x,x,x
CC1=NN(c2ccccc2)C(=O)C1(O)C1C(=O)c2ccccc2C1=O (stereo not given),74*,36,56*,4583*
CC1=NN(c2ccccc2)C(=O)C1(C)N (stereo not given),104,-2,x,x
CCC1CCCCN1C(=O)c1ccc(OC)cc1 (stereo not given),x,-17,x,x
COn1c2c(c3c4nonc4ccc31)CCCC2,102,-2,x,x
On1c2c(c3c4nonc4ccc31)CCCC2,50*,56,42*,10129*
CN(C(=O)CCc1nc(-c2nn(-c3ccc(F)cc3)c(=O)n(C)c2=O)no1)c1ccc(F)cc1,102,-78,x,x
CCOC(=O)CC(=O)CSc1nc2sc(C(=O)OCC)c(C)c2c(=O)n1CCc1ccc(OC)c(OC)c1,120,x,x,x
O=C(O)CCCC(=O)Nc1nc2n(n1)C(c1ccc(Cl)cc1)C=C(c1ccc(Cl)cc1)N2 (stereo not given),104,-63,x,x
O=C(O)CCC(=O)Nc1nc2n(n1)C(c1ccc(Cl)cc1)C=C(c1ccccc1)N2 (stereo not given),63*,-75,44*,2477*
CCC(C)C(=O)N1c2cc(C)c(C)cc2-c2c(ssc2=S)C1(C)C (stereo not given),106,x,x,x
Cc1cc2c(cc1C)N(C(=O)C(C)C)C(C)(C)c1ssc(=S)c1-2,93,x,68,45573
CCN1C(=O)/C(=C\c2ccc(OC)cc2)C(C(=O)OC)=C1C,x,-12,x,x

# Records above shown as hits in GIV-Gai AS conf.
Structure | GIV Gai3 FP | GIV Gai FP conf | GIV-Gai AS conf
O=C(O)C(=Cc1ccc(-c2cccc(C(F)(F)F)c2)o1)C(=O)O | 84* | 67 | 15696*
Cc1ccc(C)n1-c1ccc(C(=O)O)cc1O | 31* | 50* | 3903*
Cc1ccc(C)n1-c1ccsc1C(=O)O | 65* | 11* | 1766*
Cc1ccc(C(=O)O)cc1-n1c(C)ccc1C | 67* | 54* | 3689*
CC1=NN(c2ccccc2)C(=O)C1(O)C1C(=O)c2ccccc2C1=O (stereo not given) | 74* | 56* | 4583*
On1c2c(c3c4nonc4ccc31)CCCC2 | 50* | 42* | 10129*
O=C(O)CCC(=O)Nc1nc2n(n1)C(c1ccc(Cl)cc1)C=C(c1ccccc1)N2 (stereo not given) | 63* | 44* | 2477*

# Next part.
SMILES,GIV Gai3 FP,HCMV NEC inh,GIV Gai FP conf,GIV-Gai AS conf
CCOC(=O)C1=C(C)N(CCOC)C(=O)/C1=C\c1ccc(N(C)C)cc1,64*,-81,85,19702*
CC(=Nc1ccccc1O)c1sc2ccccc2c1O,127,-59,x,x
CC(=Nc1ccccc1Br)c1sc2ccccc2c1O,72*,-23,62,63874
O=S(=O)(NCc1cccn1Cc1ccccc1)c1ccc(F)c(Cl)c1,109,-30,x,x
CC(=O)Nc1ccc(NC(=O)CCc2c(C)nn(-c3ccc4nncn4n3)c2C)cc1,103,x,x,x
Cc1nn(-c2ccc3nncn3n2)c(C)c1CCC(=O)Nc1ccc(F)c(Cl)c1,89,x,78,27312
O=C(CN1CCN(CCOCCO)CC1)N1c2ccccc2Sc2ccc(C(F)(F)F)cc21,113,x,x,x
CCOc1ccc(NC(=O)c2ccc3[nH]c(C)cc(=O)c3c2)cc1,98,-7,x,x
Cc1ccc(NC(=O)c2ccc3[nH]c(C)cc(=O)c3c2)cc1,86,-1,80,29554
Cn1c(C(=O)N2CCC(C(=O)NCc3ccccc3Cl)CC2)cc2oc3ccccc3c21,94,-16,x,x
COc1cc(/C=C2\C(=O)N(c3ccc(Cl)c(C(=O)O)c3)N=C2C)ccc1OCc1ccccc1,109,26,x,x
COc1cc(/C=C2\C(=O)N(c3ccc(S(N)(=O)=O)cc3)N=C2C)cc(Br)c1OCc1ccccc1,66*,46*,59,27596*
CCc1nc2cccnc2n1-c1ccc(CC(=O)NCC2CCCO2)cc1 (stereo not given),106,-25,x,x
O=C(NCc1cccc(Cl)c1)c1cc2ccccn2c1,76*,x,89,9777*
O=C(NCc1cccc(Cl)c1)c1ccc2c(c1)N(Cc1ccccc1)CCS2,104,-25,x,x
CCc1ccc(C2=Nn3c(C)nnc3SC2)cc1,x,-19,x,x
CCN1C(C(=O)c2ccccc2)=C(NC(=O)c2ccc(Cl)cc2)c2ccccc2S1(=O)=O,104,-2,x,x
